Measured affinities in a library of Ab-14 heavy chain variants

Data: MIT Lincoln Laboratory AlphaSeq set, Li et al. 2023, doi:10.1038/s41467-023-39022-2, as distributed in FLAb.

The target is the same throughout: PDVDLGDISGINAS, from the HR2 region of SARS-CoV-2 spike.

Each scFv is VH, a 15-residue (Gly4Ser)3 linker, VL, as in the parent Ab-14, and differs from it in the CDRs of the heavy chain only.
VH: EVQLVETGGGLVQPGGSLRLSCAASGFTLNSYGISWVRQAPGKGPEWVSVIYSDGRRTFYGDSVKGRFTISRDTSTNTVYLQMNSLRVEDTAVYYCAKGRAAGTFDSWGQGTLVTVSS
VL: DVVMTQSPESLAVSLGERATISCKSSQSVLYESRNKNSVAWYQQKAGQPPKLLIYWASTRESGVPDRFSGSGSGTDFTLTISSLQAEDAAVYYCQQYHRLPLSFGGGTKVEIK

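The starting antibody came from a phage panning campaign against this peptide. Designed CDR sequences, proposed from the first random library and measured here. Group labels follow the data file (Ctrl: baseline library sampled from a position-specific scoring matrix, with some repeated check sequences; Rand: our label for a block that the file lists under HC and that is probably the random mutants of the ten best first-round binders; En: ensemble of fine-tuned language models; GP: Gaussian process model; GPLM: also part of the Gaussian process libraries; HC: hill climbing; Gen: genetic algorithm; Gibbs: Gibbs sampling; a sequence that several methods proposed may carry one label only). The assay is AlphaSeq: two haploid yeast populations carry antibody and antigen on their surface. Pairs that bind mate more often; barcode pairs of the diploids are counted by sequencing. Each replicate has its own calibration line, from reference interactions of the BCL2 family. The assay was run in six technical replicates.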

Each variant is given by its three heavy chain CDRs, as the data file delimits them; those of the parent are GFTLNSYGIS, VIYSDGRRTFYGDSVK, GRAAGTFDS.
This list holds designs with at most six substitutions.
Values are apparent Kd, the geometric mean of the replicates that gave a signal; lower means stronger binding.
"nd" marks a missing value. The strain was present, yet no cells mated with the target were sequenced in any replicate, which points to weak or no binding.
The authors averaged sequences with at least three values out of six and counted those with two or fewer as poor binders.
Values of this round are not directly comparable with the first-round values of the same sequences.
Background: pairings of all heavy chain designs with three empty control strains gave a value in 1% of cases (median 120 nM, 5th percentile 7.0 nM). Values in that range, when seen in few replicates, are hard to tell from nonspecific mating.
The parent sequence was in this pool as ten entries: three were never detected, three once, and four in most replicates, with averages from 2.2 nM to 240 nM.

The variant MFELNSYGIS, VIYSDGRRTFYGDSVK, GQIAGTFDS [GP_Gibbs] showed 37 nM (1 of 6 replicates).
The variant GFSLNEYGIS, VIYSDGRRTFYGDSVK, GKQAGTFDS [GPLM_Gibbs] showed 10 nM (6 of 6 replicates).
The variant GFSLNSYGIS, VIYSDGRRTFYADSVK, GQEAGTFDS [GPLM_Gen] showed 1.0 nM (6 of 6 replicates).
The variant GFQLNSYGIS, VIYSDGRRTFYIDSVK, GKAAGTFDQ [GP_Gibbs] showed 130 nM (4 of 6 replicates).
The variant GNTLNSYGIS, VIYSDGSRTFYGDSVK, GRAAGTFDS [Ctrl] showed 650 nM (4 of 6 replicates).
The variant GFTLNSYGIS, VIYSDGKRTFYGDSVK, GRTAGTFDS [GPLM_Gen] showed 8.3 nM (6 of 6 replicates).
The variant GFQLNEYGIS, VIYSDGRRTFYGDSVK, GKAAGTFDQ [GPLM_HC] showed 11 nM (6 of 6 replicates).
The variant GFSLNSYGIS, VIYSDGRRTFYKDSVK, GNAAGTFDS [GPLM_Gen] showed 26 nM (6 of 6 replicates).
The variant GFTLNEYGIS, VIYSDGRRTFYMDSVK, GRQAGTFDS [GPLM_HC] showed 16 nM (6 of 6 replicates).
The variant GFDLNSYGIS, VIYSDGRRTAYGDSVK, GRNAGTFDS [GPLM_Gibbs] showed 790 pM (6 of 6 replicates).
The variant GFSLNSYGIS, VIYSDGMRTFYSDSVK, GRTAGTFDS [GPLM_Gen] showed 2.8 nM (6 of 6 replicates).
The variant GFTLNSYGIS, VIYSDGKRTFYGDDVK, GRTAGTFDS [GPLM_Gibbs] showed 15 nM (2 of 6 replicates).
The variant GFSLNSYGIS, VIYSDGRRTFYQDSVK, GNAAGTFDS [GPLM_Gen] showed 1.7 nM (6 of 6 replicates).
The variant GFTLNMYGIS, VIYSDGRRTFYGDSVK, GGAAGTFDV [Ctrl] showed 8.3 nM (6 of 6 replicates).
The variant GFTLNDYGIS, VIYSDGRRTFYGDSVK, GRAAGTFDE [GP_HC] showed 5.2 nM (6 of 6 replicates).
The variant GFTLESYGIS, VIYSDGMRTFYKDSVK, GRTAGTFDS [GP_Gibbs] showed 25 nM (4 of 6 replicates).
The variant GFDLNEYGIS, VIYADGRRTFYIDSVK, GTNAGTFDS [En_HC] showed 450 pM (6 of 6 replicates).
The variant GFSLNEYGIS, VIYSDGMRTFYSDSVK, GRAAGTFDS [GP_HC] showed 1.6 nM (6 of 6 replicates).
The variant GFDLNSYGIS, VIYSDGRRTFYSDSVK, GKEAGTFDS [GP_Gen] showed 270 pM (6 of 6 replicates).
The variant KFGLNSYGIS, VIYSDGRRTFYQDSVK, GRTAGTFDS [GP_Gibbs] showed 1.5 µM (1 of 6 replicates).
The variant QFTLNSYGVS, VIYSDGRRTFYGDSVK, GYACDCFDS [Ctrl] showed nd (0 of 6 replicates).
The variant GFTLNSYQIS, VIYSDGRRTFYGDSVK, GMAAGTKDS [Ctrl] showed nd (0 of 6 replicates).
The variant GFTLNDYGIS, VIYSDGRRTMYGDSVK, GRVAGTFDS [GP_HC] showed 1.5 nM (6 of 6 replicates).
The variant GFTLDTYGIS, VIYSDGRRTFYGDSVK, GAVAKTYDS [Ctrl] showed nd (0 of 6 replicates).
The variant GFNLNEYGIS, VIYSDGRRTFYTDSVK, GRQAGTFDS [GPLM_HC] showed 1.5 nM (6 of 6 replicates).
The variant GFTLNEYGIS, VIYSDGRRTFYQDDVK, GRTAGTFDS [GP_HC] showed 810 pM (6 of 6 replicates).
The variant GFTLNSYGIS, VIYSDGRRTFYGDSVK, GRAASTFDV [Ctrl] showed nd (0 of 6 replicates).
The variant GFTLNSYGIS, VIYSDGVRTFYHDSVK, GRAAGTFDY [Ctrl] showed nd (0 of 6 replicates).
The variant GFELNSYGIS, VIYSDGRRTFYGDSVK, GRIAGTFVL [Ctrl] showed nd (0 of 6 replicates).
The variant GFTLNQYGIS, VIYSSGRRTFYGDKVK, GRHAGTFDT [Ctrl] showed nd (0 of 6 replicates).
The variant GFTLNSYGIS, VIYADGRRTFYGDSVK, GRVAGRFPS [Ctrl] showed nd (0 of 6 replicates).
The variant GFTLDSYGIS, VIYSDGRRTFYGDDVK, GRTAGTFDA [GP_Gibbs] showed 3.3 nM (6 of 6 replicates).
The variant GFTLNDYGIS, VIYSDGRRTFYIDSVK, GRLAGTFDS [GPLM_HC] showed 13 nM (6 of 6 replicates).
The variant GFTLNMYGIS, VIYSDGRRTFYGDSVK, GRAAGTDDV [Ctrl] showed nd (0 of 6 replicates).
The variant GFTLNEYGIS, VIYSDGRRTFYGDSVK, GRAAGTFMF [GPLM_HC] showed nd (0 of 6 replicates).
The variant GFELNSYGIS, VIYSDGRRTFYADSVK, GATAGTFDS [GP_Gen] showed 4.8 nM (6 of 6 replicates).
The variant QFTLNSYGIS, VIYSDGRRTMYGDDVK, GRAAGTFDL [Ctrl] showed nd (0 of 6 replicates).
The variant GFELNEYGIS, VIYSDGRRTFYGDSVK, GRTAGTFDL [GP_Gen] showed 140 nM (6 of 6 replicates).
The variant GFTLNSYGIS, VIYSDGYRTFYGDDVK, GRAAATFRE [Ctrl] showed nd (0 of 6 replicates).
The variant GENLNSYGIS, VIYSDGRRTFYGDSVK, RRAAGTFDS [Ctrl] showed nd (0 of 6 replicates).
The variant GFSLNSYGIS, VIYSDGRRTFYTDSVK, GQAAGTFDS [GPLM_Gen] showed 2.0 nM (6 of 6 replicates).
The variant GFTLNSYGIS, VIYSDGQRTFYADSVK, GRAAGTFDS [GPLM_Gen] showed 3.6 nM (6 of 6 replicates).
The variant GFTLNSYGIS, VIYADGRRTFYGDSVK, GRAAGNNKW [Rand] showed 880 pM (6 of 6 replicates).
The variant GFDLNKYGIS, VIYSDGRRTFYGDSVK, GRAYHQFDS [Ctrl] showed nd (0 of 6 replicates).
The variant GFALNSYGIS, VIYSDGRRTIYGDSVK, GNAAGTFDS [Ctrl] showed nd (0 of 6 replicates).

The 6 strongest on average among those seen in every replicate, once more:

| CDR-H1 | CDR-H2 | CDR-H3 | group | Kd (apparent) | detected |
|---|---|---|---|---|---|
| GFDLNSYGIS | VIYSDGRRTFYSDSVK | GKEAGTFDS | GP_Gen | 270 pM | 6/6 |
| GFDLNEYGIS | VIYADGRRTFYIDSVK | GTNAGTFDS | En_HC | 450 pM | 6/6 |
| GFDLNSYGIS | VIYSDGRRTAYGDSVK | GRNAGTFDS | GPLM_Gibbs | 790 pM | 6/6 |
| GFTLNEYGIS | VIYSDGRRTFYQDDVK | GRTAGTFDS | GP_HC | 810 pM | 6/6 |
| GFTLNSYGIS | VIYADGRRTFYGDSVK | GRAAGNNKW | Rand | 880 pM | 6/6 |
| GFSLNSYGIS | VIYSDGRRTFYADSVK | GQEAGTFDS | GPLM_Gen | 1.0 nM | 6/6 |